Results as given in publication PMC7562719, “Discovery of a CNS penetrant small molecule SMN2 splicing modulator with improved tolerability for spinal muscular atrophy” (Scientific Reports, 2020).
Marks after values point to notes of the source that are not given here.

System: TK6 cells
Conditions: positive control 0.1 µg/mL (0.3 µM); 3 h -S9 mix; p < 0.01
Description: These articles have been recommended for use in the OECD test guideline (Test No. 487)[49]. For metabolic activation, pre-cultured TK6 cells with the culture medium were supplemented with Sprague–Dawley rat liver mix (S9 mix, IEDA TRADING CORPORATION, Japan) at 3.33 vol%. Then, compound was mixed with the cell suspension and treated under the following treatment conditions: • Short-term treatment for 3 h without S9 mix, followed by a 21-h culture (−S9 mix assay), • Short-term treatment for 3 h with S9 mix, followed by a 21-h culture (+S9 mix assay), or • Continuous treatment for 24 h without S9 mix (24-h assay). […] To perform scoring for compound and negative control groups, the number of cells in the suspensions was counted using a Coulter Counter (Z2; Beckman Coulter, Inc.). The positive control groups were not determined. […] The cell number per 1 mL at each culture was calculated by the following formula. […]
The population doubling (PD) and relative population doubling (RPD) at each concentration was calculated by the following formula. […]
RPD%=PD of the compound-treated group/PD of the negative control group×100 For the treated groups, the 3 consecutive concentrations were selected as follows. […] For all concentrations, 4000 mononuclear cells with cytoplasm were analyzed and the number of cells with micronucleus (micronuclei) was counted using a microscope (× 600). […]

CO[C@@]12[C@H](COC(N)=O)C3=C(C(=O)C(C)=C(N)C3=O)N1C[C@@H]1N[C@@H]12 [MMC, Mitomycin, reference compound]
Micronucleated cells (%): (2.95) ** %
